Reference: patent publication US8481542B2, “Pyridazinyl derivatives as smo inhibitors” (Novartis AG, priority 2008, dated 2013)

Sequences of proteins named here, by UniProt entry; tags and fusion partners are left off. Residues count along the entry.
UniProt P56726, 33-793 limits assumed: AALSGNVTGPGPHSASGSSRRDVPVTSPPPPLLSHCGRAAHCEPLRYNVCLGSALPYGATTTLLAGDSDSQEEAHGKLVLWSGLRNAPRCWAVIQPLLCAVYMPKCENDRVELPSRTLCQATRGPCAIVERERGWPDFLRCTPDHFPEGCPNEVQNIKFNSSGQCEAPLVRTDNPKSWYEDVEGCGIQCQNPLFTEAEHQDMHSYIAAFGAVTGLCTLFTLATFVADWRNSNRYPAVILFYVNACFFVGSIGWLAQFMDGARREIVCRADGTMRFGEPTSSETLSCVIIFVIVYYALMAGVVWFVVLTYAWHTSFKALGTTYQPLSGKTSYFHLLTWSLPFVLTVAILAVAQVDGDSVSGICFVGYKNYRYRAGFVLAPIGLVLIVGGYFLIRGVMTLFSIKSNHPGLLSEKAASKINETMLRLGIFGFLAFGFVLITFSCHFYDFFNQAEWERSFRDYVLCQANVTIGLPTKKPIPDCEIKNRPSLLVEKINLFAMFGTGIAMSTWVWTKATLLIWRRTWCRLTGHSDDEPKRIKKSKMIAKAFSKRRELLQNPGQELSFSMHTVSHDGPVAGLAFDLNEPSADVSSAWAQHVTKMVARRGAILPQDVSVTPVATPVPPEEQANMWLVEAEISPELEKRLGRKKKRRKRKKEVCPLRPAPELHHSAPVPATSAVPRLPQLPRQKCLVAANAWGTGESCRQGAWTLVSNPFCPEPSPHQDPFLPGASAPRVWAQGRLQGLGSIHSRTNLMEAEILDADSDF
UniProt Q99835, 28-787 limits assumed: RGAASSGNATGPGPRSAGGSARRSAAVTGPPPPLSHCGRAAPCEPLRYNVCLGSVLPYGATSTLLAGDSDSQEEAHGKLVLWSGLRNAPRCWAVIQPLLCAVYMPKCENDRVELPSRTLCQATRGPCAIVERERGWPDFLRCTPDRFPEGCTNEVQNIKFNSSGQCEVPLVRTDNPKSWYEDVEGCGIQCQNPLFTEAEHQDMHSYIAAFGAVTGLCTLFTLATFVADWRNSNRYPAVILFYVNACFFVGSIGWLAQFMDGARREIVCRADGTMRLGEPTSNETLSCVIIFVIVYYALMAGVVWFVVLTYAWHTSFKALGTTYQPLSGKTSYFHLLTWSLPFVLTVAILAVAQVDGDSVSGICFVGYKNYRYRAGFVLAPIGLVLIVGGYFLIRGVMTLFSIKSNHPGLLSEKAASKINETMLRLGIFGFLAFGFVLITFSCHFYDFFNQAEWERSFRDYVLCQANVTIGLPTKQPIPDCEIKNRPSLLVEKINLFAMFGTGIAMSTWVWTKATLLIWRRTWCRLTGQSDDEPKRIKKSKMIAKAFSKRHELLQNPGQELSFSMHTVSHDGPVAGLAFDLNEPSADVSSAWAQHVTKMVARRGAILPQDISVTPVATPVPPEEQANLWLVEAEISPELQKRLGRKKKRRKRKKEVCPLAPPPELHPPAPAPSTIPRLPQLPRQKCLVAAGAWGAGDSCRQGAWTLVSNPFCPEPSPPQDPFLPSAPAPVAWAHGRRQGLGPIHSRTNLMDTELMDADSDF

Columns and labels:
[1] = test system: Gli-luciferase activity in TMHh12 cells; assay: Reporter gene assay (RGA) in TMHh12 cells, antagonism of Gli-luciferase activity in presence of Smo agonist; type: cell-based; details: Table 10, values as ranges
Description: Activity of the compounds was evaluated using a reporter gene assay (RGA) in TMHh12 cells. IC50 for antagonism of Gli-luciferase activity was tested in the presence of increasing concentrations of a small molecule agonist which binds to Smo with 1 nM affinity and activates the Hh pathway (Frank-Kamenetsky et al 2002, Journal of Biology 1, 10.1-10.19).
Table 10 lists the IC50 of antagonists determined in the presence of different (1 nM and 25 nM) concentrations of a small agonist of Smoothened (Frank-Kamenetsky et al 2002, Journal of Biology 1, 10.1-10.19).

[2] = biological target: mouse Smoothened receptor (Mus musculus, UniProt P56726); assay: Smo binding assay, displacement of radio-labeled smoothened agonist, filter binding format (mouse); details: read-out: Mouse Smo bdg., IC50; Table 10, values as ranges
[3] = biological target: human Smoothened receptor (Homo sapiens, UniProt Q99835); assay: Smo binding assay, displacement of radio-labeled smoothened agonist, filter binding format (human); details: read-out: Human Smo bdg., IC50; Table 10, values as ranges
[4] = read-out: RGA (1 nM Smo agonist) IC50, 1 nM Smo agonist
[5] = read-out: RGA (25 nM Smo agonist) IC50, 25 nM Smo agonist

IC50 [1, 4]	IC50 [1, 5]	IC50 [2]	IC50 [3]	SMILES
0.1 to 1 nM	1 to 10 nM	0.1 to 1 nM	0.1 to 1 nM	CCCCOC(=O)c1cnc(N2CCN(c3nnc(-c4ccc(C(C)C)cc4)c(C)c3C)CC2)nc1C(F)(F)F
0.1 to 1 nM	1 to 10 nM	< 0.1 nM	< 0.1 nM	CCCCOC(=O)c1cnc(N2CCN(c3nnc(-c4ccc(F)c(C#N)c4)c(C)c3C)CC2)nc1C(F)(F)F

The remaining lines, values behind:

SMILES	IC50 [1, 4]	IC50 [1, 5]	IC50 [2]	IC50 [3]
CCCCOC(=O)c1cnc(N2CCN(c3nnc(-c4ccc(F)nc4)c(C)c3C)C[C@H]2C)nc1C(F)(F)F	0.1 to 1 nM	0.1 to 1 nM	< 0.1 nM	0.1 to 1 nM
CCCCOC(=O)c1cnc(N2CCN(c3nnc(-c4ccncc4)c(C)c3C)C[C@H]2C)nc1C(F)(F)F	0.1 to 1 nM	1 to 10 nM	< 0.1 nM	< 0.1 nM
CCCCOC(=O)c1cnc(N2CCN(c3nnc(-c4cccnc4)c(C)c3C)C[C@H]2C)nc1C(F)(F)F	0.1 to 1 nM	0.1 to 1 nM	0.1 to 1 nM	0.1 to 1 nM

Like-named read-outs stand apart in the source and are kept apart here.
